The list is not random: actives were taken first. Their share in the collection is about 1.2%.
Cneo AK release – Cryptococcus neoformans lysis via adenylate kinase release; C. neoformans lysis, adenylate kinase release luminescence, 4 h; normalised: neutral wells 0, clomiphene wells 100; lysis activity, % at 15 µM; actives 0.2% (n = 360,000);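 active means mean lysis activity across replicates of at least 80%, whatever share of replicates individually reach that level; inactive means mean lysis activity below 80%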
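Material: C. neoformans cells | Amount: Yeast cell density of 5 × 10^6 cells/mL | Medium: Fresh YPD growth medium | Dosing: Single dose | Times: Static 4 h at 37 °C with compound, 1 h detection | Detection: AK luminescence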
miR-122 sensor – blocks miR-122 activity in Huh7 sensor cells | activation (reporter increase), % at 12.5 µM | actives 0.3% (n = 340,000) | AID 602342 | Huh7 miR-122 Renilla luciferase sensor, 48 h; neutral wells = 0, positive control = 100;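 active means mean replicate activation score at least 90 and every replicate individually at or above 90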;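 further: higher luciferase means less miR-122 activity so hits act as miR-122 inhibitors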
C2C12 statin – protects C2C12 myotubes from simvastatin toxicity | ATP luminescence, 48 h; scaled: DMSO 0, geranylgeraniol control 100 | rescue of ATP level, % at 7.49 µM | actives 0.78% (n = 330,000) | AID 602340;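 active means mean ATP rescue above about 67%, or every replicate alone reaching that limit, limit read from the data, passing the limit was not always enough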;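 further: myotubes were challenged with 10 µM simvastatin during compound exposure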
Yeast UUG start – modulators of start codon recognition fidelity in yeast; S. cerevisiae UUG-firefly luciferase reporter, luminescence/redox ratio; activity score, % at 18.7 µM; 0.13% of 350,000 active;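 active = replicate mean at a twofold rise or more, about +100% in these data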;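 also: firefly luciferase made from a UUG start codon reports start codon fidelity; reporter light over untreated wells divided by growth signal over untreated wells; some hits fall short of that in this replicate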
Active calls of the source: *; / = not tested or not shown; [ ] = another dose, or the depositor's remark.

entry | Molecule | Cneo AK release | miR-122 sensor | C2C12 statin | Yeast UUG start
1 | C[C@@H]1CN([C@H](C)CO)C(=O)c2cc(-c3cccc(C#N)c3)cnc2O[C@@H]1CN(C)C(=O)c1ccccn1 | 1 | 2[16.7 µM] | 34 | -4
2 | C/C(NC(=O)c1ccccc1F)=C1\C(=O)C[C@@H]2[C@H]1C2(C)C | -7 | -1 | 12 | 10
3 | C/C(NC(=O)c1cccc(F)c1)=C1/C(=O)C[C@@H]2[C@H]1C2(C)C | / | 1 | 128* | /
4 | C[C@H](CO)N1C[C@H](C)[C@@H](CN(C)C)OCc2cn(nn2)CCCC1=O | / | -4[16.7 µM] | -3 | /
5 | Cc1ccccc1Sc1ncnc2onc(C)c12 | -6 | -3 | 16 | -22
6 | Cc1noc2ncnc(Sc3c(Cl)cccc3Cl)c12 | 2 | 61 | 10 | -10
7 | Cc1noc2ncnc(Sc3ccc(Cl)cc3)c12 | 6 | 4 | 134* | -11
8 | Cc1ccc(Sc2ncnc3onc(C)c23)cc1 | -11 | 3 | 98* | -17

Quoted from above, entries 1–4
entry | Molecule | Cneo AK release | miR-122 sensor | C2C12 statin | Yeast UUG start
1 | C[C@@H]1CN([C@H](C)CO)C(=O)c2cc(-c3cccc(C#N)c3)cnc2O[C@@H]1CN(C)C(=O)c1ccccn1 | 1 | 2[16.7 µM] | 34 | -4
2 | C/C(NC(=O)c1ccccc1F)=C1\C(=O)C[C@@H]2[C@H]1C2(C)C | -7 | -1 | 12 | 10
3 | C/C(NC(=O)c1cccc(F)c1)=C1/C(=O)C[C@@H]2[C@H]1C2(C)C | / | 1 | 128* | /
4 | C[C@H](CO)N1C[C@H](C)[C@@H](CN(C)C)OCc2cn(nn2)CCCC1=O | / | -4[16.7 µM] | -3 | /

Carrying on:
entry | Molecule | Cneo AK release | miR-122 sensor | C2C12 statin | Yeast UUG start
9 | CNC[C@H]1Oc2cc(C#Cc3ccccn3)ccc2S(=O)(=O)N([C@H](C)CO)C[C@H]1C | 46 | -6[16.7 µM] | 16 | -6
10 | Cc1ccc2[nH]c(CNC(=O)C3CCCCC3)cc2c1 | 0 | 135* | -5 | -8
11 | CCCNC(=O)N1C[C@H](O)COC[C@@H]2O[C@H](CC(=O)N3CCN(C)CC3)CC[C@H]21 | -1 | -4[16.7 µM] | -14 | /
12 | CCCNC(=O)N1C[C@H](O)COC[C@H]2O[C@H](CC(=O)N3CCN(C)CC3)CC[C@@H]21 | 118* | 2[16.7 µM] | -29 | /
13 | CCCNC(=O)N1C[C@@H](O)COC[C@H]2O[C@H](CC(=O)N3CCN(C)CC3)CC[C@@H]21 | 105* | -6[16.7 µM] | -3 | /
14 | C[C@H]1CN([C@@H](C)CO)C(=O)CCCn2cc(nn2)CO[C@@H]1CN(C)C(=O)CCCN(C)C | 0 | 1[16.7 µM] | -16 | 11
15 | O=C(NCc1ccc(F)cc1)C1C2C=CC3(CN(Cc4cccnc4)C(=O)C13)O2 (centres undefined) | 116* | 1 | / | -13
16 | COc1ccc(S(=O)(=O)N(C)C[C@H]2Oc3ccc(NC(=O)C4CCCCC4)cc3C(=O)N([C@@H](C)CO)C[C@H]2C)cc1 | 47 | 31[16.7 µM] | -24 | 15

entry | Molecule | Cneo AK release | miR-122 sensor | C2C12 statin | Yeast UUG start
17 | O=S(=O)(c1ccc(Cl)cc1)c1cc(O)ccc1O | 0 | / | -2 | -16
18 | O=S(=O)(c1ccccc1)c1cc(O)ccc1O | 2 | 221* | 2 | -13
19 | COC(=O)c1c(CC[C@@H](CO)NC(=O)N[C@@H](Cc2ccccc2)Cn2cc(C3(O)CCCC3)nn2)oc(C(=O)N2CCOCC2)c1C(=O)OC | 0 | / | / | -12
20 | C[C@H]1CN([C@@H](C)CO)C(=O)Cc2cc(NC(=O)Cc3ccccc3)ccc2O[C@@H]1CN(C)C(=O)Nc1ccc(C(F)(F)F)cc1 | -1 | -4[16.7 µM] | -11 | 14
21 | Cc1cccc(Nc2nnc(-c3ccc(C(=O)N4C[C@H]5C[C@H](C4)c4cccc(=O)n4C5)cc3)c3ccccc23)c1 | 6 | -3 | 114* | 1
22 | CCN(C[C@@H]1[C@H](c2ccccc2)[C@H](CO)N1C(C)=O)C(=O)c1ccccn1 | 15 | -7[16.7 µM] | 17 | 87
23 | CCC(=O)Nc1ccc2c(c1)C(=O)N(C)C[C@@H](OC)[C@@H](C)CN(Cc1cccc(F)c1)[C@H](C)CO2 | 4 | / | 14 | 4
24 | CCC(=O)N1C[C@@H](C)[C@H](OC)CN(C)C(=O)c2cc(NC(=O)C3CCCCC3)ccc2OC[C@@H]1C | -6 | / | -1 | 2

entry | Molecule | Cneo AK release | miR-122 sensor | C2C12 statin | Yeast UUG start
25 | Cc1ccc(C(=O)O/N=C/c2c(C(F)(F)F)nn(C)c2Sc2ccc(Cl)cc2)cc1 | -5 | 0 | 116* | -1
26 | COC(=O)c1ccccc1Sc1c(/C=N/OC(=O)c2ccccc2)c(C(F)(F)F)nn1C | / | -5 | / | /
27 | COc1ccc(-c2c(C#N)c(N)nc3c2c(=O)n(C)c(=O)n3C)cc1 | 4 | -2 | 2 | -17
28 | CCOc1ccc(-c2c(C#N)c(N)nc3c2c(=O)n(C)c(=O)n3C)cc1OC | -4 | 1 | 84* | -4
29 | COc1cccc(C2(c3cccc(OC)c3)CC2C(=O)Nc2ccc(F)cc2)c1 (centres undefined) | -1 | 108* | / | -7
30 | NCCCNc1nc(N)c([N+](=O)[O-])c(NC2CCCCC2)n1 | 0 | / | 105* | -2
31 | COc1ccc(NC(=O)N(C)C[C@@H]2Oc3ccc(NS(=O)(=O)c4ccccc4)cc3C(=O)N([C@@H](C)CO)C[C@H]2C)cc1 | 1 | 5[16.7 µM] | / | -16
32 | CCCn1c2c(c(O)c(C(=O)NC)c1=O)CCCC2 | 1 | -5 | 119* | -16
33 | CCCn1c2c(c(O)c(C(=O)NCc3ccccc3)c1=O)CCCC2 | -8 | -1 | -19 | -19
